According to PubChem BioAssay AID1715 (Vanderbilt High Throughput Screening Facility, 2009):
The list shows a part of the results, in another mix than the full data. Results filed as inconclusive are left out. Calls of active or inactive are those of the source.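 How the source made its calls: active means thallium flux slope more than 3 SD above or below the plate's solvent-only control mean, mostly below; inconclusive means the two repeat wells disagreed; inactive means no significant shift from solvent-only controls.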

By UniProt entry, the sequences of proteins in these tests, tags left out. Where a name states a change or a piece, a line headed by the entry shows the natural chain unless it says otherwise.
UniProt Q9H2X9: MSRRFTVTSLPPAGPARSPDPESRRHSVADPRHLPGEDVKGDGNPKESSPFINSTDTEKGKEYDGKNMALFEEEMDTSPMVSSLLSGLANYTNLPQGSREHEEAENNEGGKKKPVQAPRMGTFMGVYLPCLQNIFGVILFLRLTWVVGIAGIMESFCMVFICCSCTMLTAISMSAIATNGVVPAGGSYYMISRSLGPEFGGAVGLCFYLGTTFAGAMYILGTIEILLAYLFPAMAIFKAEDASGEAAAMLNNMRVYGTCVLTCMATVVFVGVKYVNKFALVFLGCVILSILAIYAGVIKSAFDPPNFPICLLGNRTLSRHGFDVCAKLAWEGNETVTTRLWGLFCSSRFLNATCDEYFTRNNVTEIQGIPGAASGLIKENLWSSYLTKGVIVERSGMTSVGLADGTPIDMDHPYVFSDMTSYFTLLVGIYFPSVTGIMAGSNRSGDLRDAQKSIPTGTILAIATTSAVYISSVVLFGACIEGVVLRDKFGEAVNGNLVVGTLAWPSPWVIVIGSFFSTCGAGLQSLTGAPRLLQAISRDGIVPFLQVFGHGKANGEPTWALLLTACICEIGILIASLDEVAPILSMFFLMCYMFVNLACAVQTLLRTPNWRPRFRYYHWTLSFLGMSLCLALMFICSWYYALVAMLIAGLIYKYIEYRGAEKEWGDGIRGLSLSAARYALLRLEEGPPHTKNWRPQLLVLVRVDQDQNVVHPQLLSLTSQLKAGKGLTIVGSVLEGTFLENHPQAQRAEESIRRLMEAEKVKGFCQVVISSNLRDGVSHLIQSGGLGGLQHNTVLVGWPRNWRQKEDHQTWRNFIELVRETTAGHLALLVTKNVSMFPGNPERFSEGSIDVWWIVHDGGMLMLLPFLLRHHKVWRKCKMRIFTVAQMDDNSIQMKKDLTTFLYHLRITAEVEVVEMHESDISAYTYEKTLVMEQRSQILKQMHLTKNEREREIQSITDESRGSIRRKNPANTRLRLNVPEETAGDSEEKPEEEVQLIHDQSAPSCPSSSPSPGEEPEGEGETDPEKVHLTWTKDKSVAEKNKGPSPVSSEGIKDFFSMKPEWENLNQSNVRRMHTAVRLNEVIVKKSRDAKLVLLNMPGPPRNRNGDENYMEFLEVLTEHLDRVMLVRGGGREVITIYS

Molecular target: Solute carrier family 12 member 5 (Homo sapiens) (UniProt Q9H2X9)
Assay: KCC2 modulators without ouabain present, confirmation, cell-based, HEK293 KCC2, thallium flux, FluoZin2, secondary assay 2 (AID 1715);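 further: raw slope with 0.1% DMSO as baseline and bumetanide as block control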
Conditions: HEK293-KCC2, thallium flux FluoZin2 fluorescence; at 10 µM; actives lie on both sides; F/F0 rise rate, 10–20 s post-thallium

Row | SMILES | normalized thallium flux
1 | O=c1c2cc([N+](=O)[O-])ccc2[nH]c2c([N+](=O)[O-])cc([N+](=O)[O-])cc12 | inactive: 0.029
2 | C[N+]1=C2C=CC=CC=C2SC12C([N+](=O)[O-])=CC([N+](=O)[O-])=C[C-]2[N+](=O)[O-] (configuration not stated) | active: 0.0386
